{"sequences": {"note": "By UniProt entry, the sequences of proteins in these tests, tags left out. Where a name states a change or a piece, a line headed by the entry shows the natural chain unless it says otherwise.", "UniProt P33535": "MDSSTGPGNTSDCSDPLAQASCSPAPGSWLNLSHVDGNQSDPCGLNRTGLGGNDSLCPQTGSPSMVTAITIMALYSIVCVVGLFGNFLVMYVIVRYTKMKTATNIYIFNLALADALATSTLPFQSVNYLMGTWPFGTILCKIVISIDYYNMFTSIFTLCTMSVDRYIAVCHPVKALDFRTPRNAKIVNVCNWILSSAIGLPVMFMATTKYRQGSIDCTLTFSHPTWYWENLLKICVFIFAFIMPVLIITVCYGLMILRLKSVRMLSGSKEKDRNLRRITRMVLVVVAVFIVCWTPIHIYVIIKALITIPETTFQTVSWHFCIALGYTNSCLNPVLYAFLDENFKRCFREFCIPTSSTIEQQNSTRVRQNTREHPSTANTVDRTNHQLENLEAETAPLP"}, "source": "paper PMC6465774", "about": "(Frontiers in Pharmacology, 2019)", "key": {"[1]": {"target": "MOR G-protein coupling, rat whole brain membrane homogenates (Rattus norvegicus, UniProt P33535)", "assay": "Functional [35S]GTPγS binding assay in rat brain membrane homogenates"}, "[2]": {"target": "MOR G-protein coupling, rat whole spinal cord membrane homogenates (Rattus norvegicus, UniProt P33535)", "assay": "Functional [35S]GTPγS binding assay in rat spinal cord membrane homogenates", "conditions": "spinal cord"}, "[3]": {"conditions": "STZ treated, 9 weeks, basal = 100%"}, "[4]": {"conditions": "STZ treated, 12 weeks, basal = 100%"}, "[5]": {"conditions": "read-out: EC50 ± SEM, Diabetic, 9 weeks, STZ treated, 9 weeks"}, "[6]": {"conditions": "read-out: EC50 ± SEM, Diabetic, 12 weeks, STZ treated, 12 weeks"}, "[7]": {"conditions": "vehicle treated, 9 weeks, basal = 100%"}, "[8]": {"conditions": "vehicle treated, 12 weeks, basal = 100%"}}, "note": "Where two headings read alike, the source gives them in different places."}
{"substance": "14-O-methylmorphine-6-O-sulfate", "values": [{"measurement": "Emax ± SEM, Diabetic, 9 weeks", "setting": "[1]; [3]", "value": "140.7 ± 2.1 (n = 6) %"}, {"measurement": "Emax ± SEM, Diabetic, 12 weeks", "setting": "[1]; [4]", "value": "146.1 ± 3.22 (n = 5) %"}, {"measurement": "EC50", "setting": "[1]; [5]", "value": 33.2, "unit": "nM"}, {"measurement": "EC50", "setting": "[1]; [6]", "value": 27.9, "unit": "nM"}, {"measurement": "EC50", "setting": "[1]; read-out: EC50 ± SEM, Non-diabetic, 9 weeks, vehicle treated, 9 weeks", "value": 29.5, "unit": "nM"}, {"measurement": "EC50", "setting": "[1]; read-out: EC50 ± SEM, Non-diabetic, 12 weeks, vehicle treated, 12 weeks", "value": 35, "unit": "nM"}, {"measurement": "Emax ± SEM, Non-diabetic, 9 weeks", "setting": "[1]; [7]", "value": "145.7 ± 2.4 (n = 6) %"}, {"measurement": "Emax ± SEM, Non-diabetic, 12 weeks", "setting": "[1]; [8]", "value": "148.5 ± 3.59 (n = 4) %"}, {"measurement": "EC50", "setting": "[2]; [5]", "value": 43.4, "unit": "nM"}, {"measurement": "EC50", "setting": "[2]; [6]", "value": 43.5, "unit": "nM"}, {"measurement": "Emax ± SEM, Diabetic, 9 weeks", "setting": "[2]; [3]", "value": "137.3 ± 2.47 (n = 5) %"}, {"measurement": "Emax ± SEM, Diabetic, 12 weeks", "setting": "[2]; [4]", "value": "133.8 ± 2.4 (n = 5) %"}, {"measurement": "Emax ± SEM, Non-diabetic, 9 weeks", "setting": "[2]; [7]", "value": "141.4 ± 2 (n = 6) %"}, {"measurement": "Emax ± SEM, Non-diabetic, 12 weeks", "setting": "[2]; [8]", "value": "135.5 ± 1.88 (n = 6) %"}]}
